{"source": "patent US20040077031", "key": {"[1]": {"system": "MGAQFSKT (MARCKS protein) octameric peptide"}, "[2]": {"system": "MAS (methionine-alanine-serine) trimeric peptide"}}, "data": [{"substance": "recombinant human methionine aminopeptidase type 1 (MetAP1) with N-terminal histidine tag", "values": [{"measurement": "baseline activity (turnover, no added metal)", "setting": "[1]", "result": "0.51 µM/min turnover at 500 nM MetAP1"}, {"measurement": "baseline activity (turnover, no added metal)", "setting": "[2]", "result": "1.68 µM/min turnover at 120 nM MetAP1"}, {"measurement": "baseline activity on MAS relative to MGAQFSKT", "setting": "[2]", "result": "14-fold higher baseline activity"}]}]}
